In PubChem BioAssay AID2112 (National Center for Advancing Translational Sciences (NCATS), 2009):
Several values for one entry are separate records, joined by “and”; a condition that tells them apart may be missing. Identical values can stand only once. The list shows a part of the results, in another mix than the full data. Activity calls are given as the source filed them. Calls come from the whole dose curve; as a rule, active = well fitted inhibition curve with a large enough effect; inconclusive = small, poorly fitted or top-dose-only effect, or effect the other way, or another doubt; inactive = no such curve, though single readings can be large or run the other way.

Target: Lysosomal alpha-glucosidase (Homo sapiens) (UniProt P10253)
Experiment: qHTS Assay for Inhibitors and Activators of Human alpha-Glucosidase From Spleen Homogenate;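 note: 0% = enzyme with vehicle and -100% = no enzyme basal signal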
Settings: 4-MU-alpha-glucoside fluorescence; at 79.9 µM (top of the series) unless noted
Excerpt: NIH Chemical Genomics Center [NCGC] NIH Molecular Libraries Probe Production Centers Network [MLPCN] MLPCN Grant: R03 MH084841-01 Assay Submitter (PI): Wei Zheng NCGC Assay Overview: Alpha-glucosidase is responsible for the hydrolysis of terminal, non-reducing 1,4-linked alpha-D-glucose residues, which releases alpha-D-glucose. It is a lysosomal hydrolase that is required for the degradation of a small percentage (1-3%) of cellular glycogen in humans. Deficiency of this enzyme results in glycogen-storage disease type II (GSDII), also referred to as Pompe disease, an autosomal recessive disorder. Structurally normal glycogen is accumulated in the lysosomes and cytoplasm in affected patients, primarily in muscle tissues. Excessive glycogen storage within lysosomes may interrupt normal functioning of other organelles and leads to cellular injury. In turn, this leads to enlargement and dysfunction of the entire organ involved (eg: cardiomyopathy and muscle weakness). It has been reported that the improper folding and trafficking of alpha-glucosidase resulting from genetic mutations may account for a significant number of Pompe patients. […] We optimized this alpha-glucosidase assay in 1536-well plate format for identification of novel small molecule inhibitors or activators with structures other than the sugar analogs in order to develop new pharmacological chaperones. In particular, this assay is directed towards discovering compounds active in a more natural setting, tissue homogenate, that may have been missed by screens of the purified enzyme under more stringent conditions.
NCGC Assay Protocol Summary: This is a fluorogenic enzyme assay with 4-methylumbelliferyl-alpha-D-glucopyranoside as the substrate and human spleen homogenate containing alpha-glucosidase as the enzyme preparation. Upon hydrolysis of this fluorogenic substrate, the resulting product, 4-methylumbelliferone (which excites at 365 nm and emits at 440 nm) can be detected by a fluorescence plate reader. Data were normalized to the controls for basal activity (without enzyme) and 100% activity (with enzyme). The AC50 values were determined from concentration-response data modeled with the standard Hill equation. Assay buffer: 50 mM citric acid (titrated with potassium phosphate to pH 5.0), 0.01% Tween-20 (pH 5.0 is an optimal condition for this enzyme assay) 1536-well assay protocol for the alpha-glucosidase from human spleen homogenate: (1) Add 2 ul/well spleen homogenate (1 ug) (2) Add 23 nL compounds in DMSO solution. The final titration was 0.5 nM to 58 uM. (3) Add 2 ul of substrate (1 mM final) (4) Incubate at 37 C for 40 min (5) Add 2 ul stop solution (1M NaOH and 1M Glycine mixture, pH 10) (6) Detect the assay plate in a ViewLux plate reader (PerkinElmer) with Ex=365 nm and Em=440nm. Keywords: Alpha-glucosidase, Pompe Disease, pharmacological chaperone, chaperone therapy, high throughput screening, alpha-glucosidase inhibitor, MLSMR, MLSCN, NIH Roadmap, qHTS and NCGC

| SMILES | activity change, negative = inhibition |
| --- | --- |
| CCC(C)(OOC(C)(C)C)OOC(C)(C)C | inactive: 1.09% |
| O=P(Nc1ccccn1)(c1ccc(Br)cc1)c1ccc(Br)cc1 | inactive: 5.53% |
| Cc1cc([N+](=O)[O-])cc([N+](=O)[O-])c1O | inactive: -7.07% |
| O=P(Nc1nc2ccccc2s1)(c1ccccc1)c1ccccc1 | inactive: 0.43% |
| C[C@H]1OP(=O)(Oc2ccccc2)[C@H](O)[C@H](O)[C@H]1N=[N+]=[N-] (some centres not stated) | inactive: -9.84% |
| O=[As](O)(c1ccccc1)c1ccc(O)cc1 | inactive: 4.69% |
| CC(=O)NC(SC(=S)N(C)C)C(Cl)(Cl)Cl (configuration not stated) | inactive: -4.65% |
| O=[N+]([O-])c1ncn(CCn2cnc([N+](=O)[O-])n2)n1 | inactive: -2.79% |
| O=C(OC1CN2CCC1CC2)c1cccc(Cl)c1 (configuration not stated) | inactive: -4.53% |
| C(Cc1nn[nH]n1)Cc1nn[nH]n1 | inactive: -9.6% |
| Nc1ccc([As](=O)(O)c2ccc([N+](=O)[O-])cc2)cc1 | inactive: 4.17% |
| c1ccc(-c2nn[nH]n2)c(-c2nn[nH]n2)c1 | inactive: -2.41% |
| Cc1ccc(NP(=O)(Oc2cccc(C)c2)Oc2cccc(C)c2)nc1 | inactive: 3.84% |
| CCOC(=O)NC(Sc1ccccc1)C(Cl)(Cl)Cl (configuration not stated) | inactive: -9.78% |
| CCNC(=S)/N=C(\N)N[N+](=O)[O-] | inactive: 2.13% |
| O=C(NC1CCS(=O)(=O)C1)NP(=S)(Oc1ccccc1)Oc1ccccc1 (configuration not stated) | inactive: 5.48% |
| CCC(=O)N1C2C3N(C(=O)CC)C1C1N(C(=O)CC)C(C(N1C(=O)CC)N3C(=O)CC)N2C(=O)CC | inactive: -4.78% |
| COC(=O)c1cc2c(s1)N=C(c1ccccc1)N(C)P2(=O)N1CCOCC1 (configuration not stated) | inactive: -0.89% |
| CC(=O)NC(SC(=S)N(CC(C)C)CC(C)C)C(Cl)(Cl)Cl (configuration not stated) | inactive: -4.56% |
| Cc1ccc(OP(=O)(Nc2ccccn2)Oc2ccc(C)cc2)cc1 | inactive: 0.638% |
| Cc1ccccc1OP(=O)(Nc1ccccn1)Oc1ccccc1C | inactive: -0.135% |
| O=c1c2cc([N+](=O)[O-])ccc2[nH]c2c([N+](=O)[O-])cc([N+](=O)[O-])cc12 | inactive: -0.867% |
| CN(C)C(=O)Oc1noc2ccccc12 | inactive: -1.34% |

| SMILES | activity change, negative = inhibition |
| --- | --- |
| O=P1(Nc2nc3ccc(Cl)cc3s2)COc2ccccc2O1 (configuration not stated) | inactive: -20% |
| CCOc1ccc(C2=NCC(CBr)S2)cc1 (configuration not stated) | inactive: -0.0699% |
| CC(C)(C)C(=O)NC(Sc1ccccc1)C(Cl)(Cl)Cl (configuration not stated) | inactive: 5.77% |
| C[C@H]1OP(=O)(Oc2ccccc2)C[C@@H]2O[C@@H]21 (some centres not stated) | inactive: -8.59% |
| C[C@@H]1C=CCP(=O)(Oc2ccccc2)O1 (some centres not stated) | inactive: -2.98% |
| CC(=O)Nc1ccc([As](=O)(O)O)c(O)c1 | inactive: 5.15% |
| CC(=O)Nc1ccc(Oc2c([N+](=O)[O-])cc([N+](=O)[O-])cc2[N+](=O)[O-])cc1 | inactive: -10.9% |
| Cc1ccc(N/C(=N/P(=O)(N2CCOCC2)N2CCOCC2)N2CCOCC2)cc1 | inactive: 0.672% |
| NC(=O)c1cc([N+](=O)[O-])cc([N+](=O)[O-])c1N | inactive: -10.7% |
| CN1CCCC(OC(=O)C(c2ccccc2)c2ccccc2)C1 (configuration not stated) | inactive: -6.89% |
| Clc1ccc(Cl)c(NC2=NCC(CBr)S2)c1 (configuration not stated) | inactive: -2.22% |
| COc1ccccc1OP(=O)(Nc1ccc(C)cn1)Oc1ccccc1OC | inactive: 1.91% |
| Cc1ccc(OP(=O)(Nc2nccs2)Oc2ccc(C)cc2)cc1 | inactive: 3.66% |
| Oc1ccccc1CNc1ccccn1 | inactive: 5% |
| O=C(NC(Sc1ccncn1)C(Cl)(Cl)Cl)c1ccccc1 (configuration not stated) | inactive: -2.72% |
| Cc1c2non([O-])c-2c(C)[n+](=O)[n+]1[O-] | inactive: -27.9% |
| Nc1cc(N)c2nonc2c1[N+](=O)[O-] | inactive: -5.54% |
| CC(C)CC(=O)NC(Sc1ccc(Cl)cc1)C(Cl)(Cl)Cl (configuration not stated) | inactive: -5.65% |
| O=P(Nc1nc2ccc(Cl)cc2s1)(c1ccccc1)c1ccccc1 | inactive: 3.33% |
| CC(=O)Nc1ccc([As](=O)(O)O)cc1 | inactive: 3.56% |
| O=C(O)c1ccccc1[As](=O)(O)O | inactive: -4.41% |
| Cc1cc(SC(NC(=O)c2ccc(F)cc2)C(Cl)(Cl)Cl)ncn1 (configuration not stated) | inactive: -3.66% |
| CCOP(=O)(Nc1ccccc1)OCC | inactive: 0.0449% and inactive: 4.5% |

| SMILES | activity change, negative = inhibition |
| --- | --- |
| Cc1ccc(NP(=O)(Oc2ccccc2F)Oc2ccccc2F)nc1 | inactive: 1.86% |
| Nc1cccc2ccc([As](=O)(O)O)cc12 | inactive: -0.725% |
| CCN(N=Nc1nonc1N)c1nonc1N | inactive: 6.2% |
| O=C(Nc1cc([As](=O)(O)O)ccc1O)c1ccccc1 | inactive: 5.63% |
| O=[N+]([O-])c1ncn(CCn2ncnc2[N+](=O)[O-])n1 | inactive: 5.84% |
| CC(C)(C)C(=O)NC(Sc1ccncn1)C(Cl)(Cl)Cl (configuration not stated) | inactive: -9.65% |
| O=C(O)CNc1ccc([As](=O)(O)O)cc1 | inactive: 2.31% |
| O=[N+]([O-])c1cccc(NC2=NCC(CBr)S2)c1 (configuration not stated) | inactive: 2.76% |
| COc1ccc(C2=NCC(CBr)S2)cc1 (configuration not stated) | inactive: 4.85% |
| Cc1ccc(NP(=O)(Oc2ccccc2)Oc2ccccc2)nc1 | inactive: 3.5% |
| CCc1nc2c(n1)c1c(non1O)c1c2no[n+]1[O-] | inactive: -1.44% |
| O=[N+]([O-])c1cc([N+](=O)[O-])c(CCNc2ccccc2)c([N+](=O)[O-])c1 | inactive: -4.98% |
| O=[N+]([O-])c1cccc2n[nH]nc12 | inactive: 0.53% |
| CC(=O)N1C2C3N(C(C)=O)C1C1N(C(C)=O)C(C(N1C(C)=O)N3C(C)=O)N2C(C)=O | inactive: -16.6% |
| CCN(/C(=N/P(=O)(N1CCOCC1)N1CCOCC1)N1CCOCC1)c1ccc(OC)cc1 | inactive: -4.8% |
| Nc1ccc([As](=O)(O)c2ccc(N)cc2)cc1 | inactive: 0.449% |
| C[N+]1=C2C=CC=CC=C2SC12C([N+](=O)[O-])=CC([N+](=O)[O-])=C[C-]2[N+](=O)[O-] (configuration not stated) | inactive: -9.3% |
| CC(=O)C1=CCCC2CCC1N2 (configuration not stated) | inactive: 7.18% and inactive: -3.45% |
| CC1CCN(C(=O)Oc2c(Cl)cc(Cl)c3cccnc23)CC1 | inactive: -7% |
| CC(C)=N/N=C(\N)N[N+](=O)[O-] | inactive: -4.17% |
| CN(C)C(=O)OCCc1n(C)cc[n+]1C | inactive: -7.54% |
